Assay results: patent publication US20040023264A1, “Method for determining the peptide hormone activities or the steroid hormone activities of a material or substance mixture” (priority 2000, published 2004)

Molecular target: T1, glucocorticoid receptor (Rattus norvegicus, UniProt P06536)
T1 sequence (P06536 1-795): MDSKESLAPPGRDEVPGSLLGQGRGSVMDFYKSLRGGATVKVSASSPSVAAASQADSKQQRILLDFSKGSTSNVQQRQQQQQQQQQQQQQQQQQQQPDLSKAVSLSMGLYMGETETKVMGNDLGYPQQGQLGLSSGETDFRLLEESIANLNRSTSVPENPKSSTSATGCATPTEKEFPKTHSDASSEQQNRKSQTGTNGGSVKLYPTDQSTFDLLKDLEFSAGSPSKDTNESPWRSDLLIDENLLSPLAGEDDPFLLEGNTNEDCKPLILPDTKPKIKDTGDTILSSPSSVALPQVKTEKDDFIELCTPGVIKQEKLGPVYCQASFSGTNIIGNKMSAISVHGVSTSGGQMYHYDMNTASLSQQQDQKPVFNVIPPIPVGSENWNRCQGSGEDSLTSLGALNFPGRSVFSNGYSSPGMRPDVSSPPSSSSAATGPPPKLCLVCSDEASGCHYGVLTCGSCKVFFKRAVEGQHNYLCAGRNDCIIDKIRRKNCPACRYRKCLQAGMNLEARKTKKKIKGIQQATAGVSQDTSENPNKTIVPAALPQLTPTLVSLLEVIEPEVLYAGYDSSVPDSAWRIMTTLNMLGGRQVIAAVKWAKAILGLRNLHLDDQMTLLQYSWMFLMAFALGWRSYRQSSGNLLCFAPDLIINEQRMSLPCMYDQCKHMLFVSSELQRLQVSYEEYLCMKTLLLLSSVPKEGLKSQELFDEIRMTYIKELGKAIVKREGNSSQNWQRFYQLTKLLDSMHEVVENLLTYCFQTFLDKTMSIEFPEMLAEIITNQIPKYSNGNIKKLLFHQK
Experiment: Glucocorticoid activity bioassay, CC1 cells cotransfected with GRE2-TATA-Luc and glucocorticoid receptor expression plasmid
Type: cell-based
Set-up: expressed in transfected cells; host or cells: CC1 cells (permanent rat liver cell line), transiently cotransfected with pSTC-rGR and GRE2-TATA-Luc
Protocol: These cell lines contain endogenous glucocorticoid receptors. Here, steroid concentration—in this case corticosterone concentration—determines the extent of glucocorticoid activity. […] Induction time: 24 h (see also example 12).
Thus, the following examples always concern transit ntly cotransfected CC1or MH 3924 cell.

In the case of “6α-Methyl-17α-hydroxy-progesterone [medroxyprogesterone]”, the “glucocorticoid activity (luciferase induction)” value (different concentrations, induction time 24 h) is reported as “very active” and the “glucocorticoid activity of synthetic gestagen” value (induction times of 10 to 30 min also sufficient) is reported as “glucocorticoid activity of this material was detected”.
